# Tested on: RAD54 promoter-GFP reporter (pGen001)
substance,measurement,value
tritolyl phosphate,GSA genotoxicity result,positive
